Laboratory results taken from the NIST ThermoML archive (doi:10.1016/j.tca.2009.01.008).

Tests used:
[1] = molar heat capacity at constant pressure; conditions: 101.33 kPa, Liquid, Vacuum adiabatic calorimetry
[2] = molar heat capacity at constant pressure; xn = mol fraction of the nth substance listed; conditions: 101 kPa, Liquid, Vacuum adiabatic calorimetry

OCCOCCOCCOCCO [tetraethylene glycol]
[1]
Conditions | molar heat capacity at constant pressure [J/K/mol]
303.15 K | 428.5
313.15 K | 430.9
323.15 K | 434.7
333.15 K | 438.5
343.15 K | 443.6
353.15 K | 449.1

OCCOCCOCCOCCO [tetraethylene glycol] + O
molar heat capacity at constant pressure [J/K/mol], [2]
Conditions | 303.15 K | 313.15 K | 323.15 K | 333.15 K | 343.15 K | 353.15 K
x1 = 0.2 | 156 | 157.2 | 158.9 | 161 | 163 | 165.4
x1 = 0.4 | 230.6 | 232.4 | 234.9 | 237.5 | 240.5 | 243.7
x1 = 0.5 | 266 | 267.9 | 270.4 | 273.4 | 277.1 | 280.9
x1 = 0.6 | 300.5 | 302.4 | 305.3 | 308.6 | 312.4 | 316.5
x1 = 0.8 | 366.5 | 369.5 | 373.5 | 377.5 | 382.6 | 388
